The values that follow come from US20050130989A1, “N-arylheteroaromatic products compositions containing them and use thereof” (Aventis Pharma S. A., priority 2003, published 2005).

By UniProt entry, the sequences of proteins in these tests, tags left out.
UniProt P02550, whole entry: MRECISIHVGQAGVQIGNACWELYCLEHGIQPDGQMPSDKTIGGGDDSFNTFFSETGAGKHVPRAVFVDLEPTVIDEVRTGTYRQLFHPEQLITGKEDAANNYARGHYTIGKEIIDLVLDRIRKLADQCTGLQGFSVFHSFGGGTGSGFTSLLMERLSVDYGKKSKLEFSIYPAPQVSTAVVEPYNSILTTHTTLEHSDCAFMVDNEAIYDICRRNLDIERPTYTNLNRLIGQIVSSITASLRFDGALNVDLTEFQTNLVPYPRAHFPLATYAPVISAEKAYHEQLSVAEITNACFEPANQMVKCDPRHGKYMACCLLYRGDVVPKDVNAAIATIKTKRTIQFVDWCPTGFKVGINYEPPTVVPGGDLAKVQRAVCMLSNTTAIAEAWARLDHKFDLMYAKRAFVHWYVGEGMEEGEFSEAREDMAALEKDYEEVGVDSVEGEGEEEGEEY
UniProt P02554, whole entry: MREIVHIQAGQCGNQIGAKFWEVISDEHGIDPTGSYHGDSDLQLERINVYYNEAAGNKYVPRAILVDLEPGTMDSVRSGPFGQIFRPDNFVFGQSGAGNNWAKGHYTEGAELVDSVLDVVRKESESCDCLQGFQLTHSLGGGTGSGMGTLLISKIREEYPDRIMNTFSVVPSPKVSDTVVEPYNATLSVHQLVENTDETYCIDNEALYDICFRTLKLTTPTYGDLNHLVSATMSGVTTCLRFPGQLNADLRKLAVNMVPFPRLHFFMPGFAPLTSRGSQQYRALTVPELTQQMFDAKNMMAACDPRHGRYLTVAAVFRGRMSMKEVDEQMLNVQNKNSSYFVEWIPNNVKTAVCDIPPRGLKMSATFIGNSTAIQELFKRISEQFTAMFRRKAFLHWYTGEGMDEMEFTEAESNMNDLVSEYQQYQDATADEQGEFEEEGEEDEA

For one assay, the target named is tubulin (Sus scrofa, UniProt P02550+P02554). Briefly: Evaluation of the inhibition of tubulin polymerization (turbidimetry). The note with it: read-out: Inhibition of tubulin polymerization IC 50 (μm); tubulin 10 μm (1 mg/ml), 37° C., turbidity at 350 nm; concentration that inhibits the rate of polymerization by 50%. As for the experimental part:
Tubulin is purified from pig brain according to published methods (Shelanski et al., 1973, Proc. Natl. Acad. Sci. USA, 70, 765-768. Weingarten et al., 1975, Proc. Natl. Acad. Sci. USA, 72, 1858-1862). Briefly, the brains are ground and centrifuged in an extraction buffer. The tubulin contained in the supernatant of the extract undergoes two successive cycles of polymerization at 37° C. and depolymerization at 4° C., before being separated from the MAPs (Microtubule Associated Proteins) by chromatography on a phosphocellulose P11 column (Whatman). The tubulin thus isolated is more than 95% pure. It is stored in a buffer known as RB/2 30% glycerol, the composition of which is 50 mM MES-NaOH [2-(N-morpholino)ethanesulfonic acid], pH 6.8; 0.25 mM MgCl2; 0.5 mM EGTA; 30% glycerol (v/v), 0.2 mM GTP (guanosine-5′-triphosphate).
The polymerization of tubulin to microtubules is monitored by turbidimetry as follows: the tubulin is adjusted to a concentration of 10 μm (1 mg/ml) in RB/2 30% glycerol buffer to which 1 mM GTP and 6 mM MgCl2 are added. The polymerization is triggered by an increase in temperature from 6° C. to 37° C. in a cuvette with an optical path length of 1 cm, placed in a UVIKON 931 spectrophotometer (Kontron) equipped with a thermostatically maintained cuvette holder. The increase in the turbidity of the solution is monitored at 350 nm.
The products are dissolved at 10 mM in DMSO and added at variable concentrations (0.5 to 10 μm) to the tubulin solution before polymerization. The IC50 value is defined as the concentration of product that inhibits the rate of polymerization by 50%. A product whose IC50 value is less than or equal to 25 μm is considered as being very active.

The next assay has as its system HCT116 cells. Kind of assay: Inhibition of proliferation of the human colon tumor line HCT116 ([14C]-thymidine incorporation). The conditions noted are these: read-out: Inhibition of HCT116 proliferation IC 50 (μm), 48 hours at 37° C. As for the experimental part:
The proliferation of HCT116 cells is evaluated by measuring the incorporation of [^14C]-thymidine in the following manner. The HCT 116 cells (obtained from the ATCC) are cultured in a DMEM medium (Gibco) containing 10% fetal calf serum and antibiotics (1% penicillin, 1% streptomycin). To perform the proliferation test, the cells are inoculated in cytostar 96-well microplates (Amersham), at a rate of 5000 cells per well. [^14C]-thymidine (0.1 μCi/well) and the products to be evaluated are then added. Variable concentrations of products up to 10 μm are used; the DMSO (solvent used to dissolve the products) should not exceed 0.5% in the medium. 48 hours after incubation at 37° C., the radioactivity incorporated into the cells is measured by counting the plate in a TRI-LUX counter (Wallac). The IC50 is defined as the concentration of product that reduces the radioactivity by 50% compared with an untreated control. A product whose IC50 is less than 3 μm is considered cytotoxic.

For the compound `Cc1cccc(-n2nc(C)cc2C(=O)N2CCN(c3cccc4c3OCO4)CC2)c1`, the IC50 is 420 nM on tubulin and 2.1 nM in the assay on HCT116 cells.
Regarding `COC(=O)C(CO)NC(=O)c1cccc(N2CCN(C(=O)c3cc(C)nn3-c3ccccc3)CC2)c1` (stereo not drawn), the IC50 on tubulin was determined as 5500 nM.
In the case of `C=CCOC(=O)NCc1cc(C(=O)N2CCN(c3cc(OC)cc(OC)c3)CC2)n(-c2ccccc2)n1`, the IC50 at tubulin amounted to 900 nM.
With `Cc1cc(C(=O)N2CCN(c3ccc(Cl)c(C)c3)CC2)n(-c2ccccc2)n1`, the IC50 at tubulin was 1500 nM; with HCT116 cells, 39 nM.
With `CCOC(=O)NCc1cc(C(=O)N2CCN(c3cc(OC)cc(OC)c3)CC2)n(-c2ccccc2)n1`, the IC50 at tubulin was found to be 1200 nM.
Regarding `Cc1cc(C(=O)N2CCN(c3cccc(OCc4ccccc4)c3)CC2)n(-c2ccccc2)n1`, the IC50 at tubulin is 6000 nM; in the assay with HCT116 cells it was 560 nM.
